{"sequences": {"note": "By UniProt entry, the sequences of proteins in these tests, tags left out. Where a name states a change or a piece, a line headed by the entry shows the natural chain unless it says otherwise.", "UniProt P35372, whole entry": "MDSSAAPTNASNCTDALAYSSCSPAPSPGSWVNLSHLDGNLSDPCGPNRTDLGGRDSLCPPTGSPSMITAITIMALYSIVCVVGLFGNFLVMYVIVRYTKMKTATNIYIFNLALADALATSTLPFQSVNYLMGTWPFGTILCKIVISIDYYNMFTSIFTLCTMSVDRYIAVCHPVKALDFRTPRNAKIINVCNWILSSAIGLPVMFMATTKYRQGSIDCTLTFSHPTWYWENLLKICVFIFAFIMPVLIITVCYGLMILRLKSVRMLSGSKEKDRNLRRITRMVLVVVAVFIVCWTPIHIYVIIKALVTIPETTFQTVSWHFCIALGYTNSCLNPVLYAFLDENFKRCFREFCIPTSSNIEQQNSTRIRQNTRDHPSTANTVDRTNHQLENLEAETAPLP", "UniProt P41145": "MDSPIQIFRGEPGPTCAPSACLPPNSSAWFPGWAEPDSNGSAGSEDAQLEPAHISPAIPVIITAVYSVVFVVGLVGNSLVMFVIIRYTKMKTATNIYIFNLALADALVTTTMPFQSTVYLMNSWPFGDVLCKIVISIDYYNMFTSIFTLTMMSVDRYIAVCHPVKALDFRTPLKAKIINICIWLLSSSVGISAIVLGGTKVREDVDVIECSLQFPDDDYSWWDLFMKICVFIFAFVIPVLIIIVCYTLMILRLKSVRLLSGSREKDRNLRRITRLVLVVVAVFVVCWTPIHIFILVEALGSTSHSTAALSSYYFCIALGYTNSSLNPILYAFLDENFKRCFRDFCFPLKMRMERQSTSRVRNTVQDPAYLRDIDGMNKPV"}, "source": "paper PMC8434392", "about": "“Harnessing the Anti-Nociceptive Potential of NK2 and NK3 Ligands in the Design of New Multifunctional μ/δ-Opioid Agonist–Neurokinin Antagonist Peptidomimetics” (Molecules, 2021)", "key": {"human recombinant MOR [1]": {"biological_target": "T1, human recombinant MOR (Homo sapiens, UniProt P35372)", "experiment": "Calcium mobilization assay, CHO MOR cells with Gαqi5", "format": "cell-based", "parameters": "expressed in transfected cells; host or cells: CHO cells (gift from Prof. Girolamo Calo', Ferrara University)"}, "human recombinant KOR": {"biological_target": "T2, human recombinant KOR (Homo sapiens, UniProt P41145)", "T2 construct": "expressed in transfected cells; host or cells: CHO cells (gift from Prof. Girolamo Calo', Ferrara University)", "experiment": "Calcium mobilization assay, CHO KOR cells with Gαqi5", "format": "cell-based", "conditions": "intrinsic activity: Emax of ligand / Emax of dynorphin A"}, "human recombinant MOR [2]": {"biological_target": "T1, human recombinant MOR", "conditions": "intrinsic activity; data from reported literature ref 30; cited from earlier work"}}, "note": "Read-outs that look alike come from different tables or passages of the source. Marks after values point to notes of the source that are not given here.", "data": [{"smiles": "C[C@@H](NC(=O)[C@@H](N)Cc1ccc(O)cc1)C(=O)N[C@@H](Cc1ccccc1)C(=O)NCC(=O)N[C@@H](Cc1ccc(O)cc1)C(=O)N1CCC[C@H]1C(=O)N[C@@H](CO)C(N)=O", "note": "[dermorphin, reference compound]", "values": [{"measurement": "EC50", "setting": "human recombinant MOR [1]; calcium mobilization, CHO MOR Gαqi5, maximum tested concentration 10 µM, read-out: MOR EC50 ± SEM", "value": "4.64 ± 0.57", "unit": "nM"}]}, {"smiles": "Cc1cc(O)cc(C)c1C[C@H](N)C(=O)N[C@H](CCCNC(=N)N)C(=O)N[C@@H](Cc1ccccc1)C(=O)N[C@@H](CCCCN)C(N)=O", "note": "[Dmt-DALDA, H-Dmt-D-Arg-Phe-Lys-NH2, reference compound]", "values": [{"measurement": "KOR α ± SEM", "setting": "human recombinant KOR", "value": "0.55 ± 0.02"}, {"measurement": "MOR α ± SEM", "setting": "human recombinant MOR [1]; intrinsic activity: Emax of ligand / Emax of dermorphin", "value": "1.00 ± 0.06"}]}, {"smiles": "CC[C@H](C)[C@H](NC(=O)[C@H](CCCNC(=N)N)NC(=O)[C@H](CCCNC(=N)N)NC(=O)[C@H](CC(C)C)NC(=O)[C@H](Cc1ccccc1)NC(=O)CNC(=O)CNC(=O)[C@@H](N)Cc1ccc(O)cc1)C(=O)N[C@@H](CCCNC(=N)N)C(=O)N1CCC[C@H]1C(=O)N[C@@H](CCCCN)C(=O)N[C@@H](CC(C)C)C(=O)N[C@@H](CCCCN)C(=O)N[C@@H](Cc1c[nH]c2ccccc12)C(=O)N[C@@H](CC(=O)O)C(=O)N[C@@H](CC(N)=O)C(=O)N[C@@H](CCC(N)=O)C(=O)O", "note": "[dynorphin A]", "values": [{"measurement": "MOR α ± SEM", "setting": "human recombinant MOR [2]", "value": "0.83 ± 0.10 ^a"}]}]}
